Laboratory results as given in ChEMBL document CHEMBL1126169, “8-Polycycloalkyl-1,3-dipropylxanthines as potent and selective antagonists for A1-adenosine receptors” (J Med Chem, 1992).

Chains of the proteins cited; added tags and fusions are not shown.
UniProt P47745, whole entry: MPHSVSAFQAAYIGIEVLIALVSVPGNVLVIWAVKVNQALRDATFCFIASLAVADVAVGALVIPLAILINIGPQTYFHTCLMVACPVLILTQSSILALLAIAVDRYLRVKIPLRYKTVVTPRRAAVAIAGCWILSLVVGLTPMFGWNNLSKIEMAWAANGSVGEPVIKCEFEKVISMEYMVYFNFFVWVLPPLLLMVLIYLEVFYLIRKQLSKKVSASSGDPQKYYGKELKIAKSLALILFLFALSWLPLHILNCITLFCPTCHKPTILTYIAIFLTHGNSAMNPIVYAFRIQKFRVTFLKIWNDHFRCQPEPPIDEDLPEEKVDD

Target: Adenosine receptor A1 (Cavia porcellus, UniProt P47745)
Test: Binding affinity against adenosine A1 receptor using N6-[3H]cyclohexyladenosine as radioligand in guinea pig forebrain membranes
Type: cell membranes, Brain membranes

CCCn1c(=O)c2[nH]c(-c3cnsn3)nc2n(CCC)c1=O
Ki: 5.4 µM
